From US20070004039A1, “Immortalized hepatocytes” (Multicell Technologies, Inc., priority 2003, published 2007)

System: Fa2N-4 cells and primary human hepatocytes
Assay: Toxicity by LDH release and resazurin reduction, Fa2N-4 cells compared with primary human hepatocytes

Hyperforin
sensitivity of Fa2N-4 cells relative to primary hepatocytes: more sensitive than primary hepatocytes | Cellular Response (Fa2N-4 cells compared with primary human hepatocytes) (Same or Different toxicity response in the two cell types): Different
